Earlier results on one compound are cited in US20090054493A1, “THIAZOLE DERIVATIVES AS PPAR DELTA LIGANDS AND THEIR MANUFACTURING PROCESS” (priority 2005, published 2009).

Sequences of proteins named here, by UniProt entry; tags and fusion partners are left off. A change or cut given only in a name is not applied to a line headed by its entry.
UniProt Q03181, whole entry: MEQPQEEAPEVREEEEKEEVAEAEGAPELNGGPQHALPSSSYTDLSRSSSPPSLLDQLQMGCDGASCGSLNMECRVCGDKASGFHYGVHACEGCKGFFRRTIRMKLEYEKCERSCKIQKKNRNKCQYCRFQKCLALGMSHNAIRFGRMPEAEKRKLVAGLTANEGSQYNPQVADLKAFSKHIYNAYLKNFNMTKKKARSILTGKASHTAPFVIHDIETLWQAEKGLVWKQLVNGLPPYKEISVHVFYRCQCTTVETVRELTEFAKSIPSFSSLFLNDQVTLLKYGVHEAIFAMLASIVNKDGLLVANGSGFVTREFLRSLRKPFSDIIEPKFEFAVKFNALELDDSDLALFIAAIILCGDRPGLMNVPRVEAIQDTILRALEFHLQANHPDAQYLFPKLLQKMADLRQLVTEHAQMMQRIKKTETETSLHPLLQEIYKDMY

SMILES strings stand for the structures.

This series deals with PPARδ (Homo sapiens, UniProt Q03181). The settings on record: background art; cited from earlier work.

On to `CCCc1c(OCCCSc2ccc(CC(=O)O)cc2Cl)ccc2c(C(F)(F)F)noc12`, for which the “selectivity for other hPPAR subtypes” value is given as “no selectivity”.
